{
  "sequences": {"note": "Sequences of proteins named here, by UniProt entry; tags and fusion partners are left off. Residues count along the entry.", "UniProt Q9UQL6, 656-1122 limits assumed": "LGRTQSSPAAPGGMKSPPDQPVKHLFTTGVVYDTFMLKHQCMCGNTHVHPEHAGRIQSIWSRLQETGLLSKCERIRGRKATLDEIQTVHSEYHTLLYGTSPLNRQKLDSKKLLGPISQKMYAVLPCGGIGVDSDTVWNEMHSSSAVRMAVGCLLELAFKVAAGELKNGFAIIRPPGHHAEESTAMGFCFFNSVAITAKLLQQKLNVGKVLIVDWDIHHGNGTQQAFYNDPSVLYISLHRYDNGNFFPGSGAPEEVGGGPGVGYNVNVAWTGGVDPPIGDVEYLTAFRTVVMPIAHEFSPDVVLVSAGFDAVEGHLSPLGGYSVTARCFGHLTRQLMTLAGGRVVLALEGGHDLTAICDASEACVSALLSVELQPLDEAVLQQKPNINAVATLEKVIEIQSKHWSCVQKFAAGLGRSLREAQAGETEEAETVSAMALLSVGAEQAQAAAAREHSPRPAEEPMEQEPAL", "UniProt Q8WUI4, 518-952 limits assumed": "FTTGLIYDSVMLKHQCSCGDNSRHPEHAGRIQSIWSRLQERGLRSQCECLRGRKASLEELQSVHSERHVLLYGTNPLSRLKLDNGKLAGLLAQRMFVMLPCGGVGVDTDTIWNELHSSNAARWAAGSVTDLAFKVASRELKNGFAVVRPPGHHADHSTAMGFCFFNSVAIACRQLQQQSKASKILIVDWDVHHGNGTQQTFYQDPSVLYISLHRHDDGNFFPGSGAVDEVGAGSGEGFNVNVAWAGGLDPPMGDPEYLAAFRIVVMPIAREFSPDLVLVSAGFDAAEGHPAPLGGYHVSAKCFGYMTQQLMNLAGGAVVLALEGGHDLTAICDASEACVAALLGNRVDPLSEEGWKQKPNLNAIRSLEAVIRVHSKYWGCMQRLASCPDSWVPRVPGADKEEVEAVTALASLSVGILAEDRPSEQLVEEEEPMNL", "UniProt Q13547, whole entry": "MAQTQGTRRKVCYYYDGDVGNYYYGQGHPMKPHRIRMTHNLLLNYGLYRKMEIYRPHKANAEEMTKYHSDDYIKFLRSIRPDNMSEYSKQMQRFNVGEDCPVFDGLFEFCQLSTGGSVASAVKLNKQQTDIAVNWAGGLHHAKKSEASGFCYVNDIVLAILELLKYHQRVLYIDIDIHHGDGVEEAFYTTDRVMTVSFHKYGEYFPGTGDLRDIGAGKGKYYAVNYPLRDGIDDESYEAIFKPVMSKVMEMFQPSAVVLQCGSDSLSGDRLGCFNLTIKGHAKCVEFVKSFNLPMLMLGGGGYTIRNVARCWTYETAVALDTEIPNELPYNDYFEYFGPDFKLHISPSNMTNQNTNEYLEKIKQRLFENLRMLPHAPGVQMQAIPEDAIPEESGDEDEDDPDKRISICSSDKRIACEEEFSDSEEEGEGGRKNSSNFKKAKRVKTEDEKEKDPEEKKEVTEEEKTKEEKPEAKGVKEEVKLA", "UniProt P56524, 627-1084 limits assumed": "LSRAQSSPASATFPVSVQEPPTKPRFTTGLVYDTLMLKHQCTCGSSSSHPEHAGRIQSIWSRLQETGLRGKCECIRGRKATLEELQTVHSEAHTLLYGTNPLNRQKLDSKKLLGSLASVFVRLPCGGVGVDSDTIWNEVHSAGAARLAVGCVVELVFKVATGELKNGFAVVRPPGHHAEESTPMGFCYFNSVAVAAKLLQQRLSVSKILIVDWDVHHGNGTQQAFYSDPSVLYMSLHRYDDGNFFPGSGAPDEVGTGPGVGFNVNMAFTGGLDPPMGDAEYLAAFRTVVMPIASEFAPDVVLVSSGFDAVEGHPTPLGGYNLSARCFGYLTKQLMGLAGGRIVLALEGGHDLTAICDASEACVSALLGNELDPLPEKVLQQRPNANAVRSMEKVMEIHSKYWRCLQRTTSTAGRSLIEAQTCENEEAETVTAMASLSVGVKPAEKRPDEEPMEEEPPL", "UniProt Q9UBN7, whole entry": "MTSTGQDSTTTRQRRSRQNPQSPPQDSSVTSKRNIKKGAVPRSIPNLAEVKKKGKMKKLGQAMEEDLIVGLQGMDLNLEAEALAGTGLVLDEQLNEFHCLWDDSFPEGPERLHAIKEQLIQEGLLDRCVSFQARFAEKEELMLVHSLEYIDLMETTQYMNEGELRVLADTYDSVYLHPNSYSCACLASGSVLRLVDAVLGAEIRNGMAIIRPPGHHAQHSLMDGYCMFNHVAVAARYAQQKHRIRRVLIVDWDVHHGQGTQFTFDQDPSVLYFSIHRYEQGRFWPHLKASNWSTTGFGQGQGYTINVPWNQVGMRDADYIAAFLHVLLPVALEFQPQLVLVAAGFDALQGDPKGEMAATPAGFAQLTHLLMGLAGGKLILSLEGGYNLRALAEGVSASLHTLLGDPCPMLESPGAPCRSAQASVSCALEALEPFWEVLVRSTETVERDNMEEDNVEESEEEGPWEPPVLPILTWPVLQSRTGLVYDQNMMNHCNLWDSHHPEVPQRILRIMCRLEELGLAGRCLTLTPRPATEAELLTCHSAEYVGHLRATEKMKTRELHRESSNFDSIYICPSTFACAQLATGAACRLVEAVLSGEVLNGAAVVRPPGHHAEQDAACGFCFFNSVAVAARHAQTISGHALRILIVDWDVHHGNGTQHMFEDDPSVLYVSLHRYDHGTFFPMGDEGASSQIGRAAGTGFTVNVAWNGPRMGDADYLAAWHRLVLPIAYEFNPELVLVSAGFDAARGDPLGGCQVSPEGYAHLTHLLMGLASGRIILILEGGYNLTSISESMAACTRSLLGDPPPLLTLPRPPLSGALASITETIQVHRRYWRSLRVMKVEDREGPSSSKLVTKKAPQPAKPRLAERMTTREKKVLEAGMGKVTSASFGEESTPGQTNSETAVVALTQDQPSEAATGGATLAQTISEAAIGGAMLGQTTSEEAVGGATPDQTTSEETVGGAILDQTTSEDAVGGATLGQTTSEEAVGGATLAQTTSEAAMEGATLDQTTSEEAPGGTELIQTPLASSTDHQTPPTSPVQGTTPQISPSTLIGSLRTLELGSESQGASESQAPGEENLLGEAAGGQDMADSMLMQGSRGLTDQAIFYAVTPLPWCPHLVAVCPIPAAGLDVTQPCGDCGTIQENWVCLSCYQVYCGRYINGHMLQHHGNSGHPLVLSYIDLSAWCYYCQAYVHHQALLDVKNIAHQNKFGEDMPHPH", "UniProt Q9UKV0, 604-1066 isoform 5 limits assumed": "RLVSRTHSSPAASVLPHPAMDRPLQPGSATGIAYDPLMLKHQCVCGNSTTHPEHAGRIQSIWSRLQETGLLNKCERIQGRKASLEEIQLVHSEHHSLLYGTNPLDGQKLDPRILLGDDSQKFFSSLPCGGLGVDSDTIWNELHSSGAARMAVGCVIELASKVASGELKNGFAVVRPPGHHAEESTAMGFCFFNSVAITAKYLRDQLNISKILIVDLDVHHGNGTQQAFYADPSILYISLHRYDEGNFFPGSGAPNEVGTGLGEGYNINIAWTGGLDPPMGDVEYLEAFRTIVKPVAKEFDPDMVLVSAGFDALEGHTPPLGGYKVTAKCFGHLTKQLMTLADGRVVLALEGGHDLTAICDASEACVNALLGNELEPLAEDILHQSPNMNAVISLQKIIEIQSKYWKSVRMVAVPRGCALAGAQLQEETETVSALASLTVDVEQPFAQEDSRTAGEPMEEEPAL"},
  "source": "patent US20210038607A1",
  "key": {"Human HDAC5": {"target": "Human HDAC5 (Homo sapiens, UniProt Q9UQL6)", "assay": "HDAC5 biochemical assay, class IIa-specific substrate", "conditions": "read-out: HDAC Isoform IC50 (nM) 5"}, "Human HDAC7": {"target": "Human HDAC7 (Homo sapiens, UniProt Q8WUI4)", "assay": "HDAC7 biochemical assay, class IIa-specific substrate", "conditions": "read-out: HDAC Isoform IC50 (nM) 7"}, "Human HDAC1": {"target": "Human HDAC1 (Homo sapiens, UniProt Q13547)", "assay": "HDAC1 biochemical assay, AMC-labeled peptide substrate", "conditions": "read-out: HDAC Isoform IC50 (nM) 1"}, "Human HDAC4": {"target": "Human HDAC4 (Homo sapiens, UniProt P56524)", "assay": "HDAC4 biochemical assay, class IIa-specific substrate", "conditions": "read-out: HDAC Isoform IC50 (nM) 4"}, "Recombinant human HDAC6": {"target": "Recombinant human HDAC6 (Homo sapiens, UniProt Q9UBN7)", "assay": "HDAC6 biochemical assay, AMC-labeled peptide substrate", "conditions": "read-out: HDAC Isoform IC50 (nM) 6"}, "Human HDAC9": {"target": "Human HDAC9 (Homo sapiens, UniProt Q9UKV0)", "assay": "HDAC9 biochemical assay, class IIa-specific substrate", "conditions": "read-out: HDAC Isoform IC50 (nM) 9"}},
  "data": [
    {"smiles": "COC1CN(C(=O)c2cnnc(N(Cc3ccc(-c4noc(C(F)(F)F)n4)s3)c3cc(C(F)(F)F)cnn3)c2)C1", "values": [
      {"measurement": "IC50", "setting": "Human HDAC5", "result": "< 10000", "unit": "nM"},
      {"measurement": "IC50", "setting": "Human HDAC7", "result": "< 10000", "unit": "nM"},
      {"measurement": "IC50", "setting": "Human HDAC1", "result": "> 10000", "unit": "nM"},
      {"measurement": "IC50", "setting": "Human HDAC4", "result": "< 10000", "unit": "nM"},
      {"measurement": "IC50", "setting": "Recombinant human HDAC6", "result": "< 500", "unit": "nM"},
      {"measurement": "IC50", "setting": "Human HDAC9", "result": "> 10000", "unit": "nM"}
    ]}
  ]
}
